The experiment has as its target T1, recombinant human TopI (HTopI) (Homo sapiens, UniProt P11387).
T1 sequence (P11387 1-765): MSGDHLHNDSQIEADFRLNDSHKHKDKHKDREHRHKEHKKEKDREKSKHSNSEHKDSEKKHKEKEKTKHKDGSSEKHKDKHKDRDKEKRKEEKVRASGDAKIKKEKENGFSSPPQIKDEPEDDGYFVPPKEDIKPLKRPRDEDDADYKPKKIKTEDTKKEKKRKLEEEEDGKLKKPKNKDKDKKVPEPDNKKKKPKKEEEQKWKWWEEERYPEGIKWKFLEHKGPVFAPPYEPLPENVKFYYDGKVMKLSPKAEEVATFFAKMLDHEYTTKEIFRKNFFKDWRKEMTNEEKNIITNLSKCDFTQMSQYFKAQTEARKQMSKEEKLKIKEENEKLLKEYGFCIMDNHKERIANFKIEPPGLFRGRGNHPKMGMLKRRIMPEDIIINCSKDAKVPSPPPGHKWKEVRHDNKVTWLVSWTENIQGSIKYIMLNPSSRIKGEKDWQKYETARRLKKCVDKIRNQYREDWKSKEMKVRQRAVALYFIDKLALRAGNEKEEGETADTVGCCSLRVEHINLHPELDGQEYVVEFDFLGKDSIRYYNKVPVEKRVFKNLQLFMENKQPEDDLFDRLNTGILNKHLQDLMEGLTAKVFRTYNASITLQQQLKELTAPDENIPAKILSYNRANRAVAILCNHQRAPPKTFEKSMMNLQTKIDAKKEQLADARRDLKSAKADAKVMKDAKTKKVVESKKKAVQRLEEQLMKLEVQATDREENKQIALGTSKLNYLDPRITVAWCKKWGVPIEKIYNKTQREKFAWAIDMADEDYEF
Description: Gel based plasmid DNA relaxation assay with recombinant TopI (in vitro). The experiment is classed as biochemical. The protocol:
Human ToPI Inhibition in Plasmid DNA Relaxation Assays with Recombinant TopI (In Vitro) or MCF7 Cell Lysates (Ex Vivo)
Relaxation of supercoiled pBSSK(^+) DNA with recombinant human TopI (HTopI) at a molar ratio of 3:1 at 37° C. for 30 minutes was performed

Broadly, the inhibition is the share of the control response that was lost under treatment. The IC50 is the point on the concentration scale where inhibition reaches its midpoint.

In the case of `COc1ccc(-c2ccc3ncc(-c4nnco4)c(NCCCn4ccnc4)c3c2)cc1` [Compound 18, N-(3-(1H-imidazol-1-yl)propyl)-6-(4-methoxyphenyl)-3-(1,3,4-oxadiazol-2-yl)quinolin-4-amine], the inhibition at 0.1 µM (0.1 μM, recombinant TopI and compound added simultaneously) fell in the range of 85 to 90%. Moreover, the IC50 (read-out: IC50 of TopI inhibition) worked out at 29 nM.

The values above are taken from patent US20210246128A1, “BICYCLE TOPOISOMERASE I INHIBITING COMPOUNDS, PROCESS FOR PREPARATION AND USE THEREOF” (Council of Scientific & Industrial Research, priority 2018, published 2021).
